Drawing on PubChem BioAssay AID1817 (Sanford-Burnham Center for Chemical Genomics, 2009), this text covers displacement for 75 compounds.

Protein sequences, listed by entry. Tags and fused reporters are not part of them. Lines headed by an entry give the natural chain unless they say otherwise; changes in a name come on top.
UniProt Q8IUQ4: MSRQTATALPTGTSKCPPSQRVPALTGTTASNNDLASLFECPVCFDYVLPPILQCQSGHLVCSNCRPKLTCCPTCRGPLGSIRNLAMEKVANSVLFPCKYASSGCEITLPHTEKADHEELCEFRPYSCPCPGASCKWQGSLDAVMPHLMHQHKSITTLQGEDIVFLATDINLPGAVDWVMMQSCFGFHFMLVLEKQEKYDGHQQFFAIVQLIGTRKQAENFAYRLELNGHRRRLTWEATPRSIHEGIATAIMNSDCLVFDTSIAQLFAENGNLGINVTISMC

Values joined by “and” are separate entries in the source; they are usually repeats but may differ in a detail not shown here. Equal values may be shown once. The entries are a selection whose mix differs from that of the whole data set. Entries with a potency or affinity are not part of this list. Active and inactive are the calls of the source.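 The calls were made as follows: active = displacement of at least 50% at 20 µM, with a fluorescence ratio check between 0.3 and a set limit; inactive = the rest.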

This experiment concerns the target E3 ubiquitin-protein ligase SIAH1 (Homo sapiens) (UniProt Q8IUQ4). In words: Siah-1 peptide-binding antagonists, primary screen, biochemical, fluorescence polarization, rhodamine-plectin, uHTS (AID 1817).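 Also: plate controls were Siah plus tracer with DMSO for no effect and tracer alone without Siah for full effect.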 Conditions: Siah-1 / rhodamine-plectin peptide fluorescence polarization; at 20 µM; hits give high values. A general note: Fluorescence polarisation rises when a labelled molecule tumbles more slowly, as on binding a larger partner.
As to `O=P(Nc1nc2ccc(Cl)cc2s1)(c1ccccc1)c1ccccc1`, the displacement was inactive: 3.7%.

For the compound `CCOP(=O)(Nc1ccccc1)OCC`, the displacement was inactive: -2% and inactive: 3.7%.

As to `Cc1cc(SC(NC(=O)c2ccc(F)cc2)C(Cl)(Cl)Cl)ncn1` (stereo not given), the displacement was inactive: 3%.

`Cc1ccc(NP(=O)(Oc2ccccc2F)Oc2ccccc2F)nc1`: the displacement was inactive: -0.1%.

In the case of `O=[N+]([O-])c1cc([N+](=O)[O-])c(CCN2CCOCC2)c([N+](=O)[O-])c1`, the displacement was inactive: -4.3%.

Take `CCN(N=Nc1nonc1N)c1nonc1N`: the displacement is inactive: -1.8%.

As to `Nc1cccc2ccc([As](=O)(O)O)cc12`, the displacement is inactive: 45.8%.

On to `C[As](=O)(O)c1cccc(C(=O)O)c1`, for which the displacement was inactive: -0.55%.

On to `O=[As](O)(c1ccc(O)cc1)c1ccccc1O`, for which the displacement is inactive: 1.1%.

Consider `Cc1ccc2nc3c(c(C)c2c1)CC(C(Cl)Cl)S3` (stereo not given), for which the displacement was inactive: 0.4%.

In the case of `Cc1ccc(OP(=O)(Nc2ccc([N+](=O)[O-])cn2)Oc2ccc(C)cc2)cc1`, the displacement was inactive: -0.9%.

With `CC(C)c1ccc(OP(=O)(Nc2ccccn2)Oc2ccccc2F)cc1` (stereo not given), the displacement was inactive: 4.3%.

Consider `ClCCSc1nnc(-c2cccnc2)o1`, for which the displacement was inactive: -5.7%.

Consider `CCN(CC)C(=S)SC(NC=O)C(Cl)(Cl)Cl` (stereo not given), for which the displacement was inactive: 3.9%.

As for `CC(C)NC(=O)NP(=O)(Oc1ccccc1)Oc1ccccc1`, the displacement was inactive: -3.6%.

On to `O=[N+]([O-])c1cc([N+](=O)[O-])c(-c2ccn[nH]2)s1`, for which the displacement is inactive: 24.1%.

In the case of `O=C(OC1CN2CCC1CC2)C12CC3CC(CC(C3)C1)C2` (stereo not given), the displacement was inactive: -0.4%.

`Cc1cc(=O)[nH]c(N[N+](=O)[O-])n1`: the displacement is inactive: 4.6%.

Regarding `Cc1c2c(nc3ccccc13)SC(C(Cl)Cl)C2` (stereo not given), the displacement is inactive: -1.9%.

For `COc1ccc2nc(NP(=O)(c3ccccc3)c3ccccc3)sc2c1`, the displacement was inactive: 3%.

For `COc1cc(I)ccc1[As](=O)(O)O`, the displacement was inactive: -3.5%.

With `COc1ccc(N/C(=N/P(=O)(N2CCOCC2)N2CCOCC2)N2CCOCC2)cc1`, the displacement was inactive: -1.2%.

Take `COP1(=S)c2c(C)nn(CCC#N)c2N=C(c2ccc(F)cc2)N1C` (stereo not given): the displacement was inactive: -1.1%.

As to `O=C(COc1ccccc1)OC1CN2CCC1CC2` (stereo not given), the displacement is inactive: -0.4%.

Consider `O=C(Nc1ccncc1[N+](=O)[O-])c1ccc([N+](=O)[O-])cc1[N+](=O)[O-]`, for which the displacement is inactive: 0.5%.

As for `CCOC(=O)c1ccc(NC(=O)C(C)(CCl)SC)cc1` (stereo not given), the displacement was inactive: 10%.

Consider `O=C(OC1CN2CCC1CC2)c1cccc([N+](=O)[O-])c1` (stereo not given), for which the displacement was inactive: 13.5%.

Take `CCC(C)N(CC(C)C)C(=S)SC(NC(C)=O)C(Cl)(Cl)Cl` (stereo not given): the displacement is inactive: -5.6%.

As to `CCOC(=O)Nc1ccc([As](=O)(O)O)c(O)c1`, the displacement was inactive: -1.2%.

With `CCCCOc1ccc(C(=O)NCC2(N3CCCCC3)CCCCC2)cc1OC`, the displacement is inactive: -4.1%.

On to `Cc1cc(SC(NC(=O)c2ccccc2)C(Cl)(Cl)Cl)nc(C(C)C)n1` (stereo not given), for which the displacement is inactive: -7.8%.

Consider `CCOC(=O)Nc1cccc([As](=O)(O)O)c1`, for which the displacement was inactive: 10.4%.

`O=[N+]([O-])c1ccc(Nc2ccc(Oc3ccc([N+](=O)[O-])cc3[N+](=O)[O-])cc2)c([N+](=O)[O-])c1`: the displacement is inactive: 7.3%.

As for `O=P(Nc1ccccn1)(c1cccc2ccccc12)c1cccc2ccccc12`, the displacement is inactive: -0.2%.

Take `Cc1cc(SC(NC=O)C(Cl)(Cl)Cl)ncn1` (stereo not given): the displacement is inactive: -3%.

Take `Cc1nn(-c2ccccc2)c2c1P(=O)(N1CCOCC1)N(C)C(c1ccccc1)=N2` (stereo not given): the displacement is inactive: 1.7%.

Regarding `CC1CCC(C(C)C)C(OP(=O)(Nc2ccccn2)c2ccccc2)C1` (stereo not given), the displacement was inactive: 0.7%.

In the case of `Cc1ccc(C(=O)OC2CN3CCC2CC3)cc1` (stereo not given), the displacement is inactive: 4.1%.

In the case of `O=C(/C=C/c1ccccc1)OC1CN2CCC1CC2` (stereo not given), the displacement is inactive: -5.2%.

Turning to `CN(C)C1(CNC(=O)c2ccc(S(C)(=O)=O)cc2)CCCCC1`, the displacement was inactive: 2.9%.

As to `O=P1(Nc2ncccn2)COc2ccccc2OC1`, the displacement was inactive: -2.2%.

Turning to `O=P1(Nc2ccc(Br)cn2)COc2ccccc2OC1`, the displacement is inactive: -2.2%.

`Cc1ccc(OCC(=O)OC2CN3CCC2CC3)cc1` (stereo not given): the displacement is inactive: 0.3%.

On to `O=[As](O)(c1cccs1)c1cccs1`, for which the displacement was inactive: -4.15%.

On to `Nc1cccc([As](=O)(O)c2ccccc2)c1`, for which the displacement is inactive: 3.7%.

In the case of `CCOP(=O)(Nc1ccc(C)cn1)OCC`, the displacement was inactive: 0.55%.

As for `O=P1(Nc2ccccn2)COc2ccccc2OC1`, the displacement was inactive: 0.6%.

Take `CCC1=CC2Cc3nc4ccc(Cl)cc4c(N)c3C(C1)C2` (stereo not given): the displacement was inactive: 12%.

Regarding `CCOP(=O)(NC(=NC(C)c1ccccc1)NC(C)c1ccccc1)OCC` (stereo not given), the displacement is inactive: 4.1%.

As to `Clc1n[nH]nc1-c1nn[nH][15n]1`, the displacement is inactive: 6.7%.

Turning to `CC(C)(C)C(=O)NC(Sc1ncccn1)C(Cl)(Cl)Cl` (stereo not given), the displacement is inactive: 13.4%.

On to `O=[As](O)(c1ccccc1Br)c1ccccc1Br`, for which the displacement is inactive: 2.25%.

Turning to `CC(C)/C=N\N=C(\N)N[N+](=O)[O-]`, the displacement was inactive: -1.9%.

As to `CN(C(=O)Cc1ccc(Cl)c(Cl)c1)[C@@H]1CCCC[C@H]1N1CCCC1`, the displacement is inactive: -0.3%.

With `COc1cc(C(=O)NCC2(N3CCOCC3)CCCCC2)cc(Cl)c1OC(C)C`, the displacement is inactive: 4.6%.

With `O=[As](O)(O)c1cccnc1`, the displacement was inactive: -1.2%.

`CS(=O)(=O)c1ccc(Cl)c(NC(=O)COC(=O)C(O)(c2ccccc2)c2ccccc2)c1`: the displacement was inactive: 0.5%.

`O=C(OC1CN2CCC1CC2)c1ccc(Cl)cc1` (stereo not given): the displacement is inactive: 1.5%.

Turning to `O=[As](O)(c1cccc(O)c1)c1cccc(O)c1`, the displacement was inactive: 4.2%.

In the case of `Cc1cccc(OCC(=O)OC2CN3CCC2CC3)c1` (stereo not given), the displacement was inactive: 6%.

On to `CCCOP(=S)(Nc1nc(N)cc(=O)[nH]1)OCCC`, for which the displacement was inactive: -2.2%.

For `Cc1ccc(NCCc2c([N+](=O)[O-])cc([N+](=O)[O-])cc2[N+](=O)[O-])cc1`, the displacement was inactive: 58.1%.

On to `Nc1cccc2c([As](=O)(O)O)cccc12`, for which the displacement is active: 56.8%.

In the case of `COc1cc(C2NCCC3(OCCO3)C2(C)C)cc(OC)c1OC` (stereo not given), the displacement was inactive: -0.6%.

Regarding `CCOP(=O)(Nc1cccc2ccccc12)OCC`, the displacement was inactive: -2.3%.

Turning to `CS(=O)(=O)c1cc([N+](=O)[O-])c2no[n+]([O-])c2c1`, the displacement was inactive: 15.5%.

Consider `CCOP1(=S)c2c(C)nn(CCC#N)c2N=C(c2ccccc2F)N1C` (stereo not given), for which the displacement was inactive: -0.7%.

In the case of `O=P(Nc1nccs1)(c1ccccc1)c1nc2ccccc2s1` (stereo not given), the displacement is inactive: -2.2%.

`O=P(Nc1nccs1)(Oc1ccccc1)Oc1ccccc1`: the displacement is inactive: 0.5%.

Consider `Nc1ccccc1[As](=O)(O)c1ccccc1`, for which the displacement was inactive: 1.8%.

As to `O=C(O)COc1ccc([As](=O)(O)O)cc1[N+](=O)[O-]`, the displacement is inactive: 0.85%.

As for `NC(=O)Nc1ccc([As](=O)(O)O)cc1`, the displacement was inactive: 17.5%.

For `O=[N+]([O-])c1ccc2c(c1)nnn2O`, the displacement was inactive: 0.9%.

As to `CN(C(=O)Cc1ccccc1)[C@@H]1CC[C@]2(CCCO2)C[C@H]1N1CCCC1`, the displacement is inactive: -1.6%.

Take `CCOP1(=S)c2c(C)nn(CCC#N)c2N=C(c2ccc(F)cc2)N1C` (stereo not given): the displacement is inactive: -1.8%.
